Measured values: patent US11498904B2, “Substituted biaryl compounds as indoleamine 2,3-dioxygenase (IDO) inhibitors” (MERCK SHARP & DOHME CORP., priority 2017, dated 2022)

Protein sequences, listed by entry. Tags and fused reporters are not part of them.
UniProt P14902, whole entry: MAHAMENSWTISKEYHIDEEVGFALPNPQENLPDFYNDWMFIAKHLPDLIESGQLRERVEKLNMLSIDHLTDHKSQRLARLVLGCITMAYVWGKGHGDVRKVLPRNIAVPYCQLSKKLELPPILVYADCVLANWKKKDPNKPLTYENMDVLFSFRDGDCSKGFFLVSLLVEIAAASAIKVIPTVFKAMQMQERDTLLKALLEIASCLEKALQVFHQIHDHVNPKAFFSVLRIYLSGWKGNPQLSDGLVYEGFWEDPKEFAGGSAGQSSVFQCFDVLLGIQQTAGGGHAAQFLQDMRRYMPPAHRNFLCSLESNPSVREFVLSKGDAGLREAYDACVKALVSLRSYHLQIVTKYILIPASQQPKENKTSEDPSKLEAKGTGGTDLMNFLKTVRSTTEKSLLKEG

What follows are compounds tested against IDO1 (Homo sapiens, UniProt P14902) (assay: IDO1 Cellular Assay in HeLa Cells Stimulated with IFNγ). Settings: HeLa cells stimulated with IFNγ 100 ng/mL, 300 uM L-tryptophan, about 48 hours, fluorescence readout; read-out: HeLa Cell Potency, IC50.
Assay type: cell-based

SMILES	IC50 [µM]
CC(C)Oc1ccc(-c2ccc(C3(NC(=O)c4ccc(C#N)cc4)CCC3)cc2)cn1 [Example 1, 4-Cyano-N-(1-(4-(6-isopropoxypyridin-3-yl)phenyl)cyclobutyl)benzamide]	0.0038
CC(C)Oc1ccc(-c2ccc(C3(NC(=O)c4ccc(C#N)cc4)CCC3)cc2)c(Cl)n1 [Example 2, N-(1-(4-(2-Chloro-6-isopropoxypyridin-3-yl)phenyl)cyclobutyl)-4-cyanobenzamide]	0.0037
COc1cc(C)c(-c2ccc(C3(NC(=O)c4ccc(C#N)cc4)CCC3)cc2)cn1 [Example 3, 4-Cyano-N-(1-(4-(6-methoxy-4-methylpyridin-3-yl)phenyl)cyclobutyl)benzamide]	0.0052
N#Cc1ccc(C(=O)NC2(c3ccc(-c4ccc(OC(F)F)nc4)cc3)CCC2)cc1 [Example 4, 4-Cyano-N-(1-(4-(6-(difluoromethoxy)pyridin-3-yl)phenyl)cyclobutyl)benzamide]	0.0071
N#Cc1ccc(C(=O)NC2(c3ccc(-c4ccc(OC5CC5)nc4)cc3)CCC2)cc1 [Example 5, 4-Cyano-N-(1-(4-(6-cyclopropoxypyridin-3-yl)phenyl)cyclobutyl)benzamide]	0.0182
N#Cc1ccc(C(=O)NC2(c3ccc(-c4ccc(C5CC5)nc4)c(F)c3)CCC2)cc1 [Example 6, 4-Cyano-N-(1-(4-(6-cyclopropylpyridin-3-yl)-3-fluorophenyl)cyclobutyl)benzamide]	0.0366
Cc1cc(C2CC2)ncc1-c1ccc(C2(NC(=O)c3ccc(C#N)cc3)CCC2)cc1F [Example 7, 4-Cyano-N-(1-(4-(6-cyclopropyl-4-methylpyridin-3-yl)-3-fluorophenyl)cyclobutyl)benzamide]	0.0044
N#Cc1ccc(C(=O)NC2(c3ccc(-c4cncc(NS(=O)(=O)C5CC5)c4)cc3)CCC2)cc1 [Example 8, 4-cyano-N-(1-(4-(5-(cyclopropanesulfonamido)pyridin-3-yl)phenyl)cyclobutyl)benzamide]	2.83
N#Cc1ccc(C(=O)NC2(c3ccc(-c4cnc(C5CC5)nc4)cc3)CCC2)cc1 [Example 9, 4-cyano-N-(1-(4-(2-cyclopropylpyrimidin-5-yl)phenyl)cyclobutyl)benzamide]	0.0191
CC(C)(O)c1ccc(-c2ccc(C3(NC(=O)c4ccc(C#N)cc4)CCC3)cc2)cn1 [Example 10, 4-cyano-N-(1-(4-(6-(2-hydroxypropan-2-yl)pyridin-3-yl)phenyl)cyclobutyl)benzamide]	0.445
Cc1cc(C2CC2)ncc1-c1ccc(C2(NC(=O)c3ccc(C#N)cc3)CCC2)cc1 [Example 12, 4-cyano-N-(1-(4-(6-cyclopropyl-4-methylpyridin-3-yl)phenyl)cyclobutyl)benzamide]	0.0021
N#Cc1ccc(C(=O)NC2(c3ccc(-c4ccc(C5CC5)nc4)cc3)CCC2)cc1 [Example 13, 4-cyano-N-(1-(4-(6-cyclopropylpyridin-3-yl)phenyl)cyclobutyl)benzamide]	0.0146
N#Cc1ccc(C(=O)NC2(c3ccc(-c4ccc(C#N)nc4)cc3)CCC2)cc1 [Example 14, 4-cyano-N-(1-(4-(6-cyanopyridin-3-yl)phenyl)cyclobutyl)benzamide]	0.0677
CC(O)c1ccc(-c2ccc(C3(NC(=O)c4ccc(C#N)cc4)CCC3)cc2)cn1 (centres unmarked) [Example 15, 4-cyano-N-(1-(4-(6-(1-hydroxyethyl)pyridin-3-yl)phenyl)cyclobutyl)benzamide]	0.319
Cc1cc(C#N)ncc1-c1ccc(C2(NC(=O)c3ccc(C#N)cc3)CCC2)cc1 [Example 16, 4-cyano-N-(1-(4-(6-cyano-4-methylpyridin-3-yl)phenyl)cyclobutyl)benzamide]	0.0171
Cc1noc(-c2ccc(-c3ccc(C4(NC(=O)c5ccc(C#N)cc5)CCC4)cc3)cn2)n1 [Example 17, 4-cyano-N-(1-(4-(6-(3-methyl-1,2,4-oxadiazol-5-yl)pyridin-3-yl)phenyl)cyclobutyl)benzamide]	0.153
COc1cc(CO)ncc1-c1ccc(C2(NC(=O)c3ccc(C#N)cc3)CCC2)cc1 [Example 18, 4-cyano-N-(1-(4-(6-(hydroxymethyl)-4-methoxypyridin-3-yl)phenyl)cyclobutyl)benzamide]	0.197
CS(=O)(=O)Cc1ccc(-c2ccc(C3(NC(=O)c4ccc(C#N)cc4)CCC3)cc2)cn1 [Example 19, 4-cyano-N-(1-(4-(6-((methylsulfonyl)methyl)pyridin-3-yl)phenyl)cyclobutyl)benzamide]	≥ 10
N#Cc1ccc(C(=O)NC2(c3ccc(-c4ccc(C(F)F)nc4)cc3)CCC2)cc1 [Example 21, 4-cyano-N-(1-(4-(6-(difluoromethyl)pyridin-3-yl)phenyl)cyclobutyl)benzamide]	0.0302
N#Cc1ccc(C(=O)NC2(c3ccc(-c4ccc(C(=O)O)nc4)cc3)CCC2)cc1 [Example 22, 5-(4-(1-(4-cyanobenzamido)cyclobutyl)phenyl)picolinic acid]	≥ 10
N#Cc1ccc(C(=O)NC2(c3ccc(-c4ccc(C(O)C(F)(F)F)nc4)cc3)CCC2)cc1 (centres unmarked) [Example 23, 4-cyano-N-(1-(4-(6-(2,2,2-trifluoro-1-hydroxyethyl)pyridin-3-yl)phenyl)cyclobutyl)benzamide]	0.116
N#Cc1ccc(C(=O)NC2(c3ccc(-c4ccc(CO)nc4)cc3)CCC2)cc1 [Example 24, 4-cyano-N-(1-(4-(6-(hydroxymethyl)pyridin-3-yl)phenyl)cyclobutyl)benzamide]	0.316
N#Cc1ccc(C(=O)NC2(c3ccc(-c4ccc(C5CC5)nc4CO)cc3)CCC2)cc1 [Example 25, 4-cyano-N-(1-(4-(6-cyclopropyl-2-(hydroxymethyl)pyridin-3-yl)phenyl)cyclobutyl)benzamide]	0.0099
N#Cc1ccc(C(=O)NC2(c3ccc(-c4cnc(C5CC5)cn4)cc3)CCC2)cc1 [Example 26, 4-cyano-N-(1-(4-(5-cyclopropylpyrazin-2-yl)phenyl)cyclobutyl)benzamide]	0.0455
N#Cc1ccc(C(=O)NC2(c3ccc(-c4cnc(OCCF)cn4)cc3)CCC2)cc1 [Example 27, 4-cyano-N-(1-(4-(5-(2-fluoroethoxy)pyrazin-2-yl)phenyl)cyclobutyl)benzamide]	0.0952
CC(C)c1ccc(-c2ccc(C3(NC(=O)c4ccc(C#N)cc4)CCC3)cc2)nn1 [Example 28, 4-cyano-N-(1-(4-(6-isopropylpyridazin-3-yl)phenyl)cyclobutyl)benzamide]	0.0317
COc1ccc(-c2ccc(C3(NC(=O)c4ccc(C#N)cc4)CCC3)cc2)c(C)n1 [Example 30, 4-cyano-N-(1-(4-(6-methoxy-2-methylpyridin-3-yl)phenyl)cyclobutyl)benzamide]	0.0044
COc1cc(C)c(-c2ccc(C3(NC(=O)c4ccc(C#N)cc4)CCC3)cc2)c(C)n1 [Example 36, 4-cyano-N-(1-(4-(6-methoxy-2,4-dimethylpyridin-3-yl)phenyl)cyclobutyl)benzamide]	0.0019

Second part, the compound after the results:

IC50 [µM]	SMILES
0.0265	CC1CC1(NC(=O)c1ccc(F)cc1)c1ccc(-c2cnc(C(F)(F)F)cc2C(C)(C)O)nc1 (single isomer, unassigned) [Example 55, 4-fluoro-N-(1-(4′-(2-hydroxypropan-2-yl)-6′-(trifluoromethyl)-[2,3′-bipyridin]-5-yl)-2-methylcyclopropyl)benzamide]
0.0083	CC1CC1(NC(=O)c1ccc(F)cc1)c1ccc(-c2cnc(C(F)(F)F)cc2C(C)(C)O)nc1 (single isomer, unassigned) [Example 56, 4-fluoro-N-(1-(4′-(2-hydroxypropan-2-yl)-6′-(trifluoromethyl)-[2,3′-bipyridin]-5-yl)-2-methylcyclopropyl)benzamide]
0.0417	CC1CC1(NC(=O)c1ccc(F)cc1)c1ccc(-c2cnc(C(F)(F)F)cc2C(C)(C)O)nc1 (single isomer, unassigned) [Example 57]
0.0099	CC1CC1(NC(=O)c1ccc(F)cc1)c1ccc(-c2cnc(C(F)(F)F)cc2C(C)(C)O)nc1 (single isomer, unassigned) [Example 58]
0.0049	CC1CC1(NC(=O)c1ccc(F)cc1)c1ccc(-c2cnc(C(F)(F)F)cc2C(C)(C)O)nc1 (single isomer, unassigned) [Example 59]
0.0038	CC1CC1(NC(=O)c1ccc(F)cc1)c1ccc(-c2cnc(C(F)(F)F)cc2C(C)(C)O)nc1 (single isomer, unassigned) [Example 60]
0.003	Cc1cc(C(F)(F)F)ncc1-c1ccc(C2(NC(=O)c3ccc(C#N)cc3)CCC2)cc1 [Example 11, 4-cyano-N-(1-(4-(4-methyl-6-(trifluoromethyl)pyridin-3-yl)phenyl)cyclobutyl)benzamide]
0.0185	N#Cc1ccc(C(=O)NC2(c3ccc(-c4ccc(C(F)(F)F)nc4)cc3)CCC2)cc1 [Example 20, 4-cyano-N-(1-(4-(6-(trifluoromethyl)pyridin-3-yl)phenyl)cyclobutyl)benzamide]
0.0285	COc1cc(C(F)(F)F)c(-c2ccc(C3(NC(=O)c4ccc(C#N)cc4)CCC3)cc2)cn1 [Example 29, 4-cyano-N-(1-(4-(6-methoxy-4-(trifluoromethyl)pyridin-3-yl)phenyl)cyclobutyl)benzamide]
0.0151	N#Cc1ccc(C(=O)NC2(c3ccc(-c4cnc(C(F)(F)F)cc4C(F)(F)F)cc3)CCC2)cc1 [Example 31, N-(1-(4-(4,6-bis(trifluoromethyl)pyridin-3-yl)phenyl)cyclobutyl)-4-cyanobenzamide]
0.0089	COc1cc(C(F)(F)F)ncc1-c1ccc(C2(NC(=O)c3ccc(C#N)cc3)CCC2)cc1 [Example 33, 4-cyano-N-(1-(4-(4-methoxy-6-(trifluoromethyl)pyridin-3-yl)phenyl)cyclobutyl)benzamide]
0.0082	N#Cc1ccc(C(=O)NC2(c3ccc(-c4cnc(C(F)(F)F)cc4CO)cc3)CCC2)cc1 [Example 35, 4-cyano-N-(1-(4-(4-(hydroxymethyl)-6-(trifluoromethyl)pyridin-3-yl)phenyl)cyclobutyl)benzamide]
0.12	N#Cc1ccc(C(=O)NC2(c3ccc(-c4cnc(C(F)(F)F)cc4C#N)cc3)CCC2)cc1 [Example 37, 4-cyano-N-(1-(4-(4-cyano-6-(trifluoromethyl)pyridin-3-yl)phenyl)cyclobutyl)benzamide]
